Chains of the proteins cited; added tags and fusions are not shown. Residues count along the entry.
UniProt P25101, 21-427: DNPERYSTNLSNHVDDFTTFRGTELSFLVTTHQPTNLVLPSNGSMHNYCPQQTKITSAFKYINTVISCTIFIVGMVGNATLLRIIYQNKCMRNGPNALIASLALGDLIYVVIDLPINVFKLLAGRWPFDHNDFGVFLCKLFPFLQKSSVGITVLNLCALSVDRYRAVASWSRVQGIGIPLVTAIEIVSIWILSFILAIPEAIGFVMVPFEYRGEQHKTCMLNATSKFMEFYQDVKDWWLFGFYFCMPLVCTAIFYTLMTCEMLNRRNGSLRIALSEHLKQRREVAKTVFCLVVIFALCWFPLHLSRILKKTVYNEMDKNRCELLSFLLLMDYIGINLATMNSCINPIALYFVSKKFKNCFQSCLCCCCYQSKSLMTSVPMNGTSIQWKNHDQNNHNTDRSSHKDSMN

In patent US12233061B2, “Microvascular angina” (THE UNIVERSITY COURT OF THE UNIVERSITY OF GLASGOW, priority 2019, dated 2025):

Legend:
ETAR over ETBR = conditions: cited from earlier work
ETA receptor [1] = molecular target: T1, ETA receptor (Homo sapiens, UniProt P25101); experiment: ET-1 cumulative concentration response curves after antagonist preincubation, Schild plot pA2 (Example 3); format: cell-based; conditions: microvessels pre-treated with antagonist
T1 construct: Small peripheral resistance vessels (<400 μm) were carefully dissected from fresh biopsies using a light microscope; from tissue; host or cells: small peripheral resistance arteries from gluteal skin fat biopsies of angina patients

ETA receptor [2] = molecular target: T1, ETA receptor; experiment: Paired ET-1 CCRCs with and without ETA antagonist, pKB by Schild regression (Examples 4 and 5); format: cell-based
Protocol: Ex vivo pharmacological assessment of peripheral vascular function was performed on patients who volunteered to undergo a gluteal skin fat biopsy within 4 weeks of the invasive coronary function assessment. The biopsy was obtained under sterile conditions using local anaesthesia with lidocaine (2%). Small peripheral resistance vessels (<400 μm) were carefully dissected from fresh biopsies using a light microscope. About 2 mm length vessels were mounted on 40-μm stainless steel wires for isometric myography in multi-channel myograph chambers (DMT, Denmark) filled with physiological saline solution. […] This vascular biology sub-study was an extension of our work in INOCA subjects that was previously published in this journal.^31A The detailed methods are described in the Supplementary material online, Appendix.
The peripheral vascular sensitivity to ET-1 (pEC50) and maximum vasoconstriction to ET-1 (Eumax) were determined. For the antagonist studies, the affinity (KB) of BQ123 was first determined in paired vessels from individuals and calculated using Schild regression. The pKB (−log10 KB) values were compared between each genotype as an indicator of whether or not patients of different genotypes are likely to respond equally well to an ETA antagonist used clinically.

effect on the ET-1 constrictor response (shift of ET-1 CCRC) (ETA receptor [1]): markedly reduced
Kb (ETA receptor [2]): 28.8 nM
SMILES: COc1nc(C)cnc1NS(=O)(=O)c1cccnc1-c1ccc(-c2nnco2)cc1 [zibotentan, N-(3-Methoxy-5-methylpyrazin-2-yl)-2-[4-(1,3,4-oxadiazol-2-yl)phenyl]pyridine-3-sulfonamide]
selectivity for ETAR over ETBR (factor) (ETAR over ETBR): around 10^7
effect on the ET-1 constrictor response (shift of ET-1 CCRC) (ETA receptor [1]; listed as Zibotentan): potently inhibits the ET-1 mediated vessel constriction
